Patent US20060173015A1, “Cyclohexyldiamines as selective alpha 1a/1d adrenoreceptor antagonists for the treatment of benign prostatic hypertrophy and lower urinary tract symptoms” (priority 2004, published 2006)

Molecular target: T1, α1a-AR (Homo sapiens, UniProt P35348)
T1 construct: expressed in transfected cells; host or cells: COS-7
T1 sequence (P35348 1-466): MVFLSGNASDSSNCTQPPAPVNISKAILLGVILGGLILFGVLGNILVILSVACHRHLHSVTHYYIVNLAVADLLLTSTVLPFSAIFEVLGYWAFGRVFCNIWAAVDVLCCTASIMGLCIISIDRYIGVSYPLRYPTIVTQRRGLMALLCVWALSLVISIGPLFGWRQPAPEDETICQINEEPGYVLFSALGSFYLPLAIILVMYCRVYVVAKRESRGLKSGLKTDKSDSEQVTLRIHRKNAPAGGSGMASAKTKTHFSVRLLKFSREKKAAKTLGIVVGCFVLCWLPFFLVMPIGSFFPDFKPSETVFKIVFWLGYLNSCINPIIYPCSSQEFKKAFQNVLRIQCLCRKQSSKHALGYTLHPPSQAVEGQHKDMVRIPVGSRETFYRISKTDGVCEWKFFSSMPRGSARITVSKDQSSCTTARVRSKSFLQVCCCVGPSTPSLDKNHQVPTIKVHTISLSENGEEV
Test: α1-Adrenergic receptor radio-ligand (125I-HEAT) binding assay, α1a subtype
Conditions: COS-7 cell membranes
Method: α1-Adrenergic Receptor Binding Assay: Preparation of COS Cell Membranes
Membranes were prepared from COS-7 cells that had been transfected with one of the three α1-AR subtypes by the following method. COS cells from ten 100 mm tissue culture plates were scraped into 5 mL TE (50 mM Tris-HCl, 5 mM EDTA, pH 7.4). The cell suspension was disrupted with a Brinkman Polytron, setting 8, for 10 sec. The disrupted cells were centrifuged at 1000×g for 10 min at 4° C. Supernatants were centrifuged at 34,500×g for 20 min at 4° C. The membrane pellets were suspended in 2 mL TNE (50 mM Tris-HCl, 5 mM EDTA, 150 mM NaCl, pH7.4). An aliquot of the membrane suspension was stored at −70° C. until use. The protein concentration was determined using the BioRad DC protein assay kit following membrane solubilization with Triton X-100.
Radio-Ligand Binding Assay
Triplicate determinations of radio-ligand binding in the presence of increasing: concentrations of testing compound were made. The reagents were added to 96-well polypropylene plate wells using the Biomek 1000 robot (Beckman Instruments). […] The radioactive content was analyzed in the TopCount microplate scintillation counter (Packard Instruments).

`COc1ccc(Br)cc1S(=O)(=O)N[C@H]1CC[C@@H](N2CCN(c3ccccc3OC(C)C)CC2)CC1` [Cpd 28, 5-Bromo-N-cis-{4-[4-(2-isopropoxy-phenyl)-piperazin-1-yl]-cyclohexyl}-2-methoxy-benzenesulfonamide] gave a Ki of 1.6 nM.

Molecule `COc1ccc(Br)cc1S(=O)(=O)N[C@H]1CC[C@H](N2CCN(c3ccccc3OC(C)C)CC2)CC1` [Cpd 56, 5-Bromo-N-trans-{4-[4-(2-isopropoxy-phenyl)-piperazin-1-yl]-cyclohexyl}-2-methoxy-benzenesulfonamide] has a Ki of 10 nM.
